Results from patent EP0461869A2, “Chemotherapeutic agents” (MERCK & CO. INC., priority 1990, dated 1991).

Sequences of proteins named here, by UniProt entry; tags and fusion partners are left off.
UniProt P49355, whole entry: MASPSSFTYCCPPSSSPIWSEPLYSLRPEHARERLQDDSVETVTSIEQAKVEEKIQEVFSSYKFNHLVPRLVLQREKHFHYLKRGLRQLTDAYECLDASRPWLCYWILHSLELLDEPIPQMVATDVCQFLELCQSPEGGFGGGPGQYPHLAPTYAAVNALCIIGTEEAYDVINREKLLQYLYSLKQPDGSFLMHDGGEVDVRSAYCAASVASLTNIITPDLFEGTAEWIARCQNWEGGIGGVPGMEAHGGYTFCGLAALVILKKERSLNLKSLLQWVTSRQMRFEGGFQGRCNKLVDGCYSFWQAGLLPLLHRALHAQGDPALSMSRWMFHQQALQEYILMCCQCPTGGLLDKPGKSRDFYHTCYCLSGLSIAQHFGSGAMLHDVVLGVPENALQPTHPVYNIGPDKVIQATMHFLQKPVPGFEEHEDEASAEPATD

Target: T1, Farnesyl-protein transferase from bovine brain (partially purified enzyme preparation) (Bos taurus, UniProt P29702+P49355)
T1 construct: the indicated compounds were incubated with this partially purified enzyme preparation; from tissue; host or cells: bovine brain; chromatographed on DEAE-Sephacel and N-octyl agarose
Experiment: Competition of Ras farnesylation by polyisoprenoids and peptides (Hepes-buffered assay, immunoprecipitation and nitrocellulose filtration)
Assay type: biochemical
Settings: [Leu68]RAS1(term.)CVLS at 1 µM, 0.5 µM [3H]FPP, 10 min at 24° C; average of 2-5 determinations; >> = no competition at the highest concentration tested

Substance: Cys-Val-Ile-Met [CVIM]
- IC50: 90 nM
